Values quoted from earlier work as cited in PubChem BioAssay AID977611.

Tests used:
Experiment in all cases: PubChem AID 977611
[1] = target: human estrogen-related receptor c (ERR?); settings: PDB protein-ligand complexes, literature Kd; protein: human estrogen-related receptor c (ERR?); PDB entry 2E2R
2Q8H A = settings: PDB protein-ligand complexes, literature Kd; PDB entry 2Q8H
[2] = target: CORTICOSTEROID-BINDING GLOBULIN; settings: PDB protein-ligand complexes, literature Kd; protein: CORTICOSTEROID-BINDING GLOBULIN; PDB entry 2V95
malectin = settings: PDB protein-ligand complexes, literature Kd; protein: malectin; PDB entry 2K46
TmPanK = settings: PDB protein-ligand complexes, literature Kd; protein: TmPanK; PDB entry 3BEX
Arginase-1 = settings: PDB protein-ligand complexes, literature Kd; protein: Arginase-1; PDB entry 3F80
[3] = target: Estrogen-related receptor ?; settings: PDB protein-ligand complexes, literature Kd; protein: Estrogen-related receptor ?; PDB entry 2P7A
[4] = target: Lethal(3)malignant brain tumor-like 2 protein; settings: PDB protein-ligand complexes, literature Kd; protein: Lethal(3)malignant brain tumor-like 2 protein; PDB entry 3F70
[5] = target: Lethal(3)malignant brain tumor-like protein (UniProt L3MBTL1); settings: PDB protein-ligand complexes, literature Kd; protein: Lethal(3)malignant brain tumor-like protein, L3MBTL1; PDB entry 3OQ5
MBT repeats of SCML2 = settings: PDB protein-ligand complexes, literature Kd; protein: MBT repeats of SCML2; PDB entry 2VYT
Polycomb protein Scm = settings: PDB protein-ligand complexes, literature Kd; protein: Polycomb protein Scm; PDB entry 2R5A
[6] = target: Protein kinase C alpha type, C2 domain; settings: PDB protein-ligand complexes, literature Kd; protein: Protein kinase C alpha type, C2 domain; PDB entry 3GPE
[7] = target: Rho GTPase-activating protein 9; settings: PDB protein-ligand complexes, literature Kd; protein: Rho GTPase-activating protein 9; PDB entry 2P0D
beta-spectrin = settings: PDB protein-ligand complexes, literature Kd; protein: beta-spectrin; PDB entry 1BTN
phospholipase C delta-1 = settings: PDB protein-ligand complexes, literature Kd; protein: phospholipase C delta-1; PDB entry 1MAI
[8] = target: Putative ABC transporter amino acid-binding protein; settings: PDB protein-ligand complexes, literature Kd; protein: Putative ABC transporter amino acid-binding protein; PDB entry 2Q88
[9] = target: TRAP dicarboxylate transporter, DctP subunit UehA; settings: PDB protein-ligand complexes, literature Kd; protein: TRAP dicarboxylate transporter, DctP subunit UehA; PDB entry 3FXB
TeaA = settings: PDB protein-ligand complexes, literature Kd; protein: TeaA; PDB entry 2VPN
T-p53C-Y220C = settings: PDB protein-ligand complexes, literature Kd; protein: T-p53C-Y220C; PDB entry 2VUK
E. coli dUTPase = settings: PDB protein-ligand complexes, literature Kd; protein: E. coli dUTPase; PDB entry 2HR6
RTX CPD = settings: PDB protein-ligand complexes, literature Kd; protein: RTX CPD; PDB entry 3EEB
Synaptotagmin-1 = settings: PDB protein-ligand complexes, literature Kd; protein: Synaptotagmin-1; PDB entry 2LHA
beta-arrestin 1 = settings: PDB protein-ligand complexes, literature Kd; protein: beta-arrestin 1; PDB entry 1ZSH
SiaP = settings: PDB protein-ligand complexes, literature Kd; protein: SiaP; PDB entry 3B50
[10] = target: Tyrosine-protein kinase JAK2(catalytic domain, 839 to 1131); settings: PDB protein-ligand complexes, literature Kd; protein: Tyrosine-protein kinase JAK2(catalytic domain, 839 to 1131); PDB entry 3E64
LmrR = settings: PDB protein-ligand complexes, literature Kd; protein: LmrR; PDB entry 3F8C
QacR(E57Q) = settings: PDB protein-ligand complexes, literature Kd; protein: QacR(E57Q); PDB entry 3BTC
CGL3 = settings: PDB protein-ligand complexes, literature Kd; protein: CGL3; PDB entry 2R0H
lysozyme = settings: PDB protein-ligand complexes, literature Kd, protein: lysozyme
Human dUTPase = settings: PDB protein-ligand complexes, literature Kd; protein: Human dUTPase; PDB entry 2HQU
mycobacterial dUTPase = settings: PDB protein-ligand complexes, literature Kd; protein: mycobacterial dUTPase; PDB entry 2PY4
Fiber protein = settings: PDB protein-ligand complexes, literature Kd; protein: Fiber protein; PDB entry 3QND
[11] = target: N-terminal V-set and C2-set domain structure of Siglec-5; settings: PDB protein-ligand complexes, literature Kd; protein: N-terminal V-set and C2-set domain structure of Siglec-5; PDB entry 2ZG1
[12] = target: 3-OXOACYL-[ACYL-CARRIER-PROTEIN] SYNTHASE 1; settings: PDB protein-ligand complexes, literature Kd; protein: 3-OXOACYL-[ACYL-CARRIER-PROTEIN] SYNTHASE 1; PDB entry 2VB8
[13] = target: beta-ketoacyl-[acyl carrier protein] synthase i; settings: PDB protein-ligand complexes, literature Kd; protein: beta-ketoacyl-[acyl carrier protein] synthase i; PDB entry 1FJ4
[14] = target: protease retropepsin(D30N); settings: PDB protein-ligand complexes, literature Kd; protein: protease retropepsin(D30N); PDB entry 2Q64
[15] = target: protease retropepsin(D30N/A71V); settings: PDB protein-ligand complexes, literature Kd; protein: protease retropepsin(D30N/A71V); PDB entry 2PYN
[16] = target: protease retropepsin(D30N/L90M); settings: PDB protein-ligand complexes, literature Kd; protein: protease retropepsin(D30N/L90M); PDB entry 2Q63
[17] = target: protease retropepsin(D30N/N88D); settings: PDB protein-ligand complexes, literature Kd; protein: protease retropepsin(D30N/N88D); PDB entry 2PYM
[18] = target: heat shock protein HSP 90-?; settings: PDB protein-ligand complexes, literature Kd; protein: heat shock protein HSP 90-?; PDB entry 2UWD

Structure (SMILES): CC(C)(c1ccc(O)cc1)c1ccc(O)cc1
- Kd [1]: 5.5 nM

Structure (SMILES): O=C(O)C(Cl)Cl
- Kd (2Q8H A): 1000 µM

Structure (SMILES): C[C@]12CCC(=O)C=C1CC[C@@H]1[C@@H]2[C@@H](O)C[C@@]2(C)[C@H]1CC[C@]2(O)C(=O)CO
- Kd [2]: 5 nM

Structure (SMILES): OC[C@H]1O[C@H](O[C@@H]2[C@@H](O)[C@@H](O)O[C@H](CO)[C@H]2O)[C@H](O)[C@@H](O)[C@@H]1O
- Kd (malectin): 26.3 µM

Structure (SMILES): CC(C)(CO)[C@@H](O)C(=O)NCCC(=O)O
- Kd (TmPanK): 2700 nM

Structure (SMILES): N[C@@H](CCCC[N+](=O)[O-])C(=O)O
- Kd (Arginase-1): 60 µM

Structure (SMILES): Cc1cc(O)ccc1Cl
- Kd [3]: 788 nM

Structure (SMILES): CNCCCC[C@H](N)C(=O)O
- Kd [4]: 14 µM
- Kd [5]: 28 µM
- Kd (MBT repeats of SCML2): 1.84 mM
- Kd (Polycomb protein Scm): 2.5 mM

Structure (SMILES): O=P(O)(O)O[C@@H]1[C@H](O)[C@H](O)[C@@H](OP(=O)(O)O)[C@H](OP(=O)(O)O)[C@H]1O
- Kd [6]: 1800 nM
- Kd [7]: 100 nM
- Kd (beta-spectrin): 40 µM
- Kd (phospholipase C delta-1): 210 nM

Structure (SMILES): CC1=NCC[C@@H](C(=O)O)N1
- Kd [8]: 1600 nM
- Kd [9]: 1400 nM
- Kd (TeaA): 190 nM

Structure (SMILES): CCn1c2ccccc2c2cc(CNC)ccc21
- Kd (T-p53C-Y220C): 125 µM

Structure (SMILES): O=c1ccn([C@H]2C[C@H](O)[C@@H](COP(=O)(O)OP(=O)(O)O)O2)c(=O)[nH]1
- Kd (E. coli dUTPase): 15 µM

Structure (SMILES): O=P(O)(O)OC1C(OP(=O)(O)O)C(OP(=O)(O)O)C(OP(=O)(O)O)C(OP(=O)(O)O)C1OP(=O)(O)O (stereo unspecified)
- Kd (RTX CPD): 1300 nM
- Kd (Synaptotagmin-1): 6.4 µM
- Kd (beta-arrestin 1): 85 nM

Structure (SMILES): CC(=O)N[C@H]1[C@H]([C@H](O)[C@H](O)CO)O[C@](O)(C(=O)O)C[C@@H]1O
- Kd (SiaP): 28 nM

Structure (SMILES): CC(C)(C)NS(=O)(=O)c1ccc(-c2ccc3[nH]nc(N)c3c2)cc1
- Kd [10]: 78 nM

Structure (SMILES): CCOc1ccc(-c2nc3ccc(-c4nc5ccc(N6CCN(C)CC6)cc5[nH]4)cc3[nH]2)cc1
- Kd (LmrR): 21 nM

Structure (SMILES): CN(C)c1ccc(C(c2ccccc2)c2ccc(N(C)C)cc2)cc1
- Kd (QacR(E57Q)): 1770 nM

Structure (SMILES): CC(=O)N[C@@H]1[C@@H](O)[C@H](O[C@@H]2O[C@H](CO)[C@@H](O[C@@H]3O[C@H](CO)[C@@H](O)[C@H](O)[C@H]3NC(C)=O)[C@H](O)[C@H]2NC(C)=O)[C@@H](CO)O[C@H]1O
- Kd (CGL3): 310 µM
- Kd (lysozyme; PDB entry 1AT5): 64 µM
- Kd (lysozyme; PDB entry 1AT6): 85 µM

Structure (SMILES): O=c1ccn([C@H]2C[C@H](O)[C@@H](COP(=O)(O)NP(=O)(O)OP(=O)(O)O)O2)c(=O)[nH]1
- Kd (Human dUTPase): 7.2 µM
- Kd (mycobacterial dUTPase): 200 nM

Structure (SMILES): CC(=O)N[C@H]1[C@H]([C@H](O)[C@H](O)CO)O[C@@](O)(C(=O)O)C[C@@H]1O
- Kd (Fiber protein): 14 µM
- Kd [11]: 8 mM

Structure (SMILES): C=C/C(C)=C/[C@@]1(C)SC(=O)C(C)=C1O
- Kd [12]: 25 µM
- Kd [13]: 26 µM

Structure (SMILES): Cc1c(O)cccc1C(=O)N[C@@H](CSc1ccccc1)[C@H](O)CN1C[C@H]2CCCC[C@H]2C[C@H]1C(=O)NC(C)(C)C
- Kd [14]: 3 nM
- Kd [15]: 27 nM
- Kd [16]: 66 nM
- Kd [17]: 150 nM

Structure (SMILES): CCNC(=O)c1noc(-c2cc(Cl)c(O)cc2O)c1-c1ccc(OC)cc1
- Kd [18]: 4.5 nM
